Experimental data reported in patent US10258038B2, “Use of heterocyclic compounds for controlling nematodes” (BAYER CROPSCIENCE AKTIENGESELLSCHAFT, priority 2014, dated 2019).

Key:
Type in all cases: in vivo
Radopholus similis = Radopholus similis test (soil application); details: application rate 2 ppm in soil; banana seedling; after 2 weeks
Description: Radopholus similis—Test (Soil Application)
(§1) Solvent: 4 parts by weight acetone
(§2) Emulsifier: 1 part by weight alkylaryl polyglycol ether
To produce a suitable preparation of active compound, 1 part by weight of active compound is mixed with solvent and emulsifier at the ratio 4:1 and is diluted with water to the desired concentration.
This compound solution is mixed with soil. The stated concentration refers to the amount of compound per unit of volume soil (mg/1=ppm). The treated soil is filled into 250 ml pots and a banana seedling is planted. Afterwards 2.5 ml of a nematode suspension (500 Radopholus similis/ml) are applied.
After 2 weeks the number of nematodes in the banana roots is determined by means of maceration. The roots are cut off, cleaned with water and after adding 25-40 ml 0.01% lactic acid—acid fuchsin solution they are boiled in a microwave. On the next day the roots are rinsed over a 0.025 mm-nematode sieve, roughly minced and macerated with 15-20 ml water in an Ultra Turrax. After filling up with water to 45 ml, the number of nematodes in the supernatant is determined microscopically with a counting chamber.
The average number of nematodes per pot is determined and efficieny is calculated by using Abbott's formula:
(§3) C=untreated control plants

Meloidogyne incognita = Meloidogyne incognita in tomato test (MELGIN soil application); details: application rate 2 ppm in soil; tomato seedling (Solanum lycopersicum); after five weeks
Description: Meloidogyne incognita in Tomato—Test (MELGIN Soil Application)
as §1, §2
To produce a suitable preparation of active compound, 1 part by weight of active compound is mixed with solvent and emulsifier at the ratio 4:1 and is diluted with water to the desired concentration. The stated concentration refers to the amount of compound per unit of volume soil (mg/1=ppm).
This compound composition is mixed with 500 ml of soil and 4 ml of a nematode suspension (1000 differenciated eggs and larvae of Meloidogyne incognita/ml). The stated concentration refers to the amount of compound per unit of volume soil (mg/1=ppm). The treated soil is filled in 500 ml pots and a tomato seedling (Solanum lycopersicum) is planted.
After five weeks the average number of galls in the tomato roots per pot are determined and efficieny is calculated by using Abbott's formula:
as §3

Globodera rostochiensis = Globodera rostochiensis test (soil application); details: application rate 2 ppm in soil; potato seedling; after six weeks
Description: Globodera rostochiensis—Test (Soil Application)
as §1, §2
To produce a suitable preparation of active compound, 1 part by weight of active compound is mixed with solvent and emulsifier at the ratio 4:1 and is diluted with water to the desired concentration. This compound composition is mixed with soil. The stated concentration refers to the amount of compound per unit of volume soil (mg/1=ppm).
450 ml of this compound composition is mixed with 50 ml of soil infected with Globodera rostochiensis (20.000 nematodes/100 ml), filled in 500 ml pots and a potato seedling is planted.
After six weeks the average number of cysts in the potato roots per pot are determined and efficieny is calculated by using Abbott's formula:
as §3

O=C(Nc1ccn(-c2ncc(F)cc2F)n1)c1ccccc1C(F)(F)F [Compound I-1-140, N-[1-(3,5-difluoropyridin-2-yl)-1H-pyrazol-3-yl]-2-(trifluoromethyl)benzamide]
100%: activity (efficiency by Abbott's formula, number of nematodes in banana roots) (Radopholus similis) | activity (efficiency by Abbott's formula, number of galls in tomato roots) (Meloidogyne incognita) | activity (efficiency by Abbott's formula, number of cysts in potato roots) (Globodera rostochiensis)
